# Ab-14 light chain CDR variants: yeast mating affinities

Reference: Engelhart et al. 2022, doi:10.1038/s41597-022-01779-4. File: FLAb, binding data.

Antigen: PDVDLGDISGINAS, a 14-residue peptide of the SARS-CoV-2 spike HR2 region.

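The parent was found by panning a naive human phage display library on the peptide. Library AAYL50 holds single substitutions and randomly drawn double and triple substitutions in the CDRs. Affinity was read by AlphaSeq, a pooled yeast mating assay with surface-displayed partners. Binding brings cells together so that they mate, and sequencing counts the barcode pairs among the diploids. Read counts were normalised to the haploid input and turned into Kd by a linear fit to BCL2-family pairs of known affinity, for each replicate. Each pool was mated in three replicate cultures.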

Parent scFv Ab-14: VH joined to VL by a 15-residue (Gly4Ser)3 linker. Changes lie in the light chain CDRs alone.
VH: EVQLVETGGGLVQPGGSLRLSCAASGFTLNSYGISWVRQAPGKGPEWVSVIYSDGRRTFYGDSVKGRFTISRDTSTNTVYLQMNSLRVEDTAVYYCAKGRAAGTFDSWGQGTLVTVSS
VL: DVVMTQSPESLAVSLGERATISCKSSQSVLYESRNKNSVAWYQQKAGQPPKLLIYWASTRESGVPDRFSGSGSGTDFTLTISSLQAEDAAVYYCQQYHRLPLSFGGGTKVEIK

Each variant is given by its three light chain CDRs, as the data file delimits them; those of the parent are KSSQSVLYESRNKNSVA, WASTRES, QQYHRLPLS.
This list gathers variants with a substitution at N37 (VL, numbered from residue 1).
Scale: log10 of Kd in nM, estimated from mating counts; low values are strong binders.
Averages over replicates are reported, and they cover detected replicates only.
A pair that was not seen in that replicate is written "nd"; this usually means weak binding, but a binder can also be missed.
Nonspecific signal, from three strains lacking the peptide, appeared in 18% of pairings of library AAYL50, centred on 4.19 (5% of these signals below 2.99); values are not corrected for it.

CDR-L1	CDR-L2	CDR-L3	log10 Kd, replicates	log10 Kd (nM), mean
KYSQSVLYEYRNKRSVA	WASTRES	QQYHRLPLS	4.05 3.24 nd	3.64
KSSQSVLYESRNKPSVA	WASTRES	QQCHRLPLS	nd nd nd	nd
KSSQSVLYESRNKKSVA	WAATRES	QQYHRLPLP	nd nd nd	nd
KSSQSVLYESRNKSSVA	WADTRES	QQYHRLPLS	1.47 1.23 1.59	1.43
KSSQSVLYESRNKFSVA	WESTWES	QQYHRLPLS	nd nd 5.38	5.38
KSSQVVLYESRNKDSVA	WASTEES	QQYHRLPLS	nd nd nd	nd
KSSQSVLYESRNKQSVA	WASTRES	QQYHALPGS	1.58 1.96 2.05	1.87
KSSQSVLYESRNKGSVA	WASTRES	FQYHRLHLS	nd nd nd	nd
KSGQSVLYESRDKSSVA	WASTRES	QQYHRLPLS	1.56 1.52 1.68	1.59
KSSQSVLYESRNKDSVD	WASTRES	QQYHSLPLS	nd nd nd	nd
KSSQSVLYEPRNKESVG	WASTRES	QQYHRLPLS	nd 4.11 nd	4.11
KSSQSVLYCSRNKQSVA	WASTRES	QQYSRLPLS	nd nd nd	nd
KSSQSSLYESRNKSSVA	WASTRES	QQYNRLPLS	1.47 1.69 1.77	1.64
KSSQSVLYESRNKQSVA	WASCRES	QQYHRLPLS	2.14 2.18 2.35	2.22
KSSQSVLYESRYKDSVA	WASTREH	QQYHRLPLS	1.98 1.80 1.72	1.83
KSSQSVSYESRNKKSVA	WASTRES	QQYHRLPLS	2.83 2.60 3.02	2.82
KSSQSVLYESRNKLSVA	WAVTCES	QQYHRLPLS	nd 3.43 nd	3.43
KSSQSVLYESRNKASVA	WAAMRES	QQYHRLPLS	3.20 3.48 4.30	3.66
KSSRSVLYESRNKRSVA	WASTRPS	QQYHRLPLS	3.55 3.32 nd	3.44
KSSQSMLYESRNKSSVA	WMSTRES	QQYHRLPLS	2.27 2.02 1.93	2.07
KSSQSVLYCSRNKLSVA	WASTRES	PQYHRLPLS	nd nd nd	nd
KSSQSVLYESRNKFSVA	WASTRES	VHYHRLPLS	nd nd nd	nd
KSSQSVLYGSRNKLSVA	WASTRES	QQYHRLPLS	2.74 2.16 2.42	2.44
KSSQSVLYESRNKTSVA	FASTRES	QQYHRLPLS	2.18 2.56 2.24	2.33
KSSQSVLYESRNKASVA	WASARES	QQYHRLPPS	nd nd nd	nd
KSSQSVLYCSRNKTSVA	WNSTRES	QQYHRLPLS	6.62 nd nd	6.62
KSSYSVLYESRNKSSVW	WASTRES	QQYHRLPLS	nd 4.59 nd	4.59
KSSQSVLYESRNKPSVA	WRSTRES	QAYHRLPLS	4.30 4.94 nd	4.62
KSSQSVLYESRNKMSVA	WASTRES	QQYHRLPLS	1.35 1.40 1.52	1.42
KSSQSVLYESRCKSSVA	IASTRES	QQYHRLPLS	nd 4.41 4.59	4.50
KSSQSVLYESRNKTSVA	WASTRES	QQYHRLPLT	2.34 2.02 1.65	2.00
KSSQSVLYESRNKQSVA	WASIRES	QQYVRLPLS	0.74 1.42 1.26	1.14
KSSQSVLYESRNKSVVA	WASTRES	QQYHRTPLS	5.88 5.03 3.65	4.85
KWSQSVLYESRNKISVA	WASTRES	QQYFRLPLS	2.01 1.81 2.04	1.95
KSSQSVLYESRNKVYVT	WASTRES	QQYHRLPLS	nd nd nd	nd
KSSRSVLYESRNKSSVA	WASTGES	QQYHRLPLS	3.77 4.33 nd	4.05
KSSQSVLYESRNKASVA	PASTRES	QQYHRLCLS	nd nd nd	nd
KSSQSVLYESRNKFSHA	IASTRES	QQYHRLPLS	nd nd nd	nd
NSSQVVLYESRNKHSVA	WASTRES	QQYHRLPLS	4.19 4.73 3.76	4.23
KSSQSVLYESRNKMSVA	WASTRES	QQYQRLDLS	0.99 1.42 1.31	1.24
KSSQSVLYESRNKFSVA	WASTRES	QQYHRLPLS	1.00 1.42 1.32	1.25
KSMQSVLYESRNKGSVA	WASTRES	QQYHRLPLS	1.93 2.38 2.29	2.20
KSSQSVLYESRNKSSVA	WAFTRES	QQFHRLPLS	1.70 1.87 1.77	1.78
KSSQSVLYASRNKPSVA	WASTRES	QQYHRLPLE	nd nd nd	nd
KSSQSVLYNSRNKQSVA	WCSTRES	QQYHRLPLS	3.62 nd nd	3.62
KSSQSVLYESRNKQSHT	WASTRES	QQYHRLPLS	nd 3.26 nd	3.26
KSSQSVLYPSRNKDSVA	WASTRES	QQYARLPLS	1.27 1.26 1.31	1.28
KSSQSVLYESRNRYSVA	WASTRES	QQYHRFPLS	1.49 1.81 1.91	1.74
KWSQSVLYESRNKMSVA	WASTRES	QQYHRCPLS	2.27 2.09 2.06	2.14
KSSQSVLYESRNKFSVA	WASTRES	QRKHRLPLS	1.57 1.60 1.43	1.53

Extract of 5 entries:

CDR-L1,CDR-L2,CDR-L3,"log10 Kd, replicates","log10 Kd (nM), mean"
KSSQSVLYESRNKMSVA,WASTRES,QQYHRLPLS,1.35 1.40 1.52,1.42
KSSQSVLYGSRNKLSVA,WASTRES,QQYHRLPLS,2.74 2.16 2.42,2.44
KSSRSVLYESRNKSSVA,WASTGES,QQYHRLPLS,3.77 4.33 nd,4.05
KSSQSVLYESRNKTSVA,WASTRES,QQYHRLPLT,2.34 2.02 1.65,2.00
KSSQSVLYESRNKSSVA,WADTRES,QQYHRLPLS,1.47 1.23 1.59,1.43